# Binding of CDR-mutated scFvs to a peptide of the spike HR2 region

The target is the same throughout: PDVDLGDISGINAS, from the HR2 region of SARS-CoV-2 spike.

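This is the validation round: designs drawn from the data on random variants, tested in the same kind of assay. Their group label is 14L_En_Gibbs (En: ensemble of fine-tuned language models; Gibbs: Gibbs sampling). In AlphaSeq, yeast of one mating type display the scFv and yeast of the other type display the target. Binding brings cells together so that they mate, and sequencing counts the barcode pairs among the diploids. The ratio of observed to expected reads was calibrated, replicate by replicate, on BCL2-family standards whose Kd was known from biolayer interferometry. Each pool was mated in six replicate cultures.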

Each scFv is VH, a (GGGGS)3 linker, VL, as in the parent Ab-14, and differs from it in the CDRs of the light chain only.
VH: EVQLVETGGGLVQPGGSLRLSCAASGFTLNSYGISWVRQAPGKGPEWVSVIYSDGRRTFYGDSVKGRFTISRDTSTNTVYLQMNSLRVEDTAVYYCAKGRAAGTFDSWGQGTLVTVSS
VL: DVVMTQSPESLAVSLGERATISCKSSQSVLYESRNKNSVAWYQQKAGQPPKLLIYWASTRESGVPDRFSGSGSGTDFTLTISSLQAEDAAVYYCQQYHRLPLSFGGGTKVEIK

Variants are written as CDR1, CDR2 and CDR3 of the light chain (limits as in the source). Parent: KSSQSVLYESRNKNSVA, WASTRES, QQYHRLPLS. Values are log10 of the apparent Kd in nM; lower means stronger binding. The mean shown is taken over the replicates in which the pair was detected. An entry "nd" has no value in the source: the pair was not observed among the diploids in that replicate. This suggests poor binding but is not conclusive.

CDR-L1	CDR-L2	CDR-L3	log10 Kd (nM) by replicate	log10 Kd (nM), mean	signal with controls
NLSWKQIGQNMESMAVA	GTEQRNA	QQYARLPIS	1.40 1.26 0.58 0.89 0.89 0.90	0.98	2/18 (2.77)
ELFFNDDQLQEQSNNIA	HASLRSV	QQYMHLPLV	1.02 0.79 0.85 0.60 0.99 0.86	0.85	4/18 (3.33)
HMRHEFYGYDNYDQAVA	HANQRLN	QQYSRLPFS	0.80 0.84 0.40 0.88 0.69 0.84	0.74	0/18
TLGNLMGGQNEMDNSIA	NHETRVQ	QQYWHLPLV	0.57 0.73 0.57 0.46 0.58 0.77	0.61	1/18 (1.41)
MVNQHDEGFKGVKDAIA	NAELREG	QQYGRLPLS	0.29 0.22 0.22 0.07 0.10 -0.06	0.14	1/18 (2.85)
RMNKFMSEITEARNSIA	GAEHLAQ	QSYHRLPLS	1.19 0.84 1.73 1.28 0.92 0.97	1.16	1/18 (2.70)
NISINVADEYAMRNNIA	NTAWKAI	QQYFHLPLM	0.93 1.35 1.11 0.71 0.64 2.00	1.12	0/18
KFSGVKEMVNKDQESIA	DAHTMQE	QQYSRLPLA	0.95 0.72 0.73 0.35 0.72 0.58	0.68	0/18
QISLNGWDGEPYEYAVA	EGTIKDA	QQYSRLPLS	1.41 1.39 1.44 1.02 2.02 1.55	1.47	0/18
MVTLQLRNGHELQNPIA	EASHKAA	QQYAHLPLG	1.86 2.49 nd 1.64 nd nd	2.00	1/18 (2.12)
HIQDDIGGAKEQFDNVA	STEERSY	QQYYRLPLS	0.67 0.72 0.43 0.57 0.40 0.80	0.60	0/18
HIDTANRGEDMKQDPIA	QADHREQ	QQYFQLPLI	1.52 0.86 -0.23 0.08 0.52 0.40	0.53	1/18 (0.61)
IMSEGQERDASRLNNIA	DHYTRAT	QQYARLPLS	0.41 0.03 -0.03 0.04 0.07 0.05	0.09	0/18
HIQDDAGGLSEQFDSVA	STEERSY	QQYHRLPLS	0.88 0.43 0.24 0.29 0.46 0.73	0.50	1/18 (2.31)
KFAMGLDYNNAHKSAIA	HADIRNI	QQYFRLPLD	1.42 1.21 1.66 2.61 1.89 1.73	1.75	2/18 (2.00)
RLMGWGPDQIQHANSVA	DRDEVDM	QQYAHLPLS	2.83 1.77 2.77 0.99 0.71 2.05	1.85	0/18
SLAMLLDQQYAKGANIA	NAAELVV	QQYYRLPLT	1.01 0.70 1.15 0.47 0.64 0.86	0.81	0/18
KMTGGLLDGNREPSNIA	AQDITTQ	QQYNRLPFI	0.59 0.26 0.20 0.20 0.31 0.33	0.31	1/18 (2.43)
KLEEEADVITEIGHSVA	EMSMVMD	QQYHRLPLA	1.20 0.83 0.92 0.85 1.11 1.31	1.04	1/18 (2.33)
MMKQSIEGNPLNTNNIA	DADSVTS	QQYARLPLF	0.30 0.23 0.07 0.04 -0.18 0.41	0.15	1/18 (2.35)
YMSGQISGDWNQQEAIA	EVTYKEH	QQYYQLPLS	nd nd nd nd nd nd	nd	0/18
HISANNWMQGSQWDAVA	QGEIANN	QQYARLPLS	0.97 1.04 0.70 0.86 0.59 1.22	0.90	0/18
MMLTGDPLQLAAQNAVA	NANLAMT	QHYFRLPLV	nd nd nd nd nd nd	nd	0/18
VLGQNTDEREMYCDNIA	DATHREA	QQYYRLPFV	1.52 1.40 1.21 1.38 1.24 1.70	1.41	1/18 (1.92)
RMEWHNSGALEAKNSVA	GVEHRAN	QQYDRLPLE	1.00 0.75 0.75 0.56 0.51 1.21	0.80	2/18 (2.59)
KLSMETYGLTGHMSSIA	HVEIRWA	QQYHKLPLI	nd nd nd nd nd nd	nd	0/18
KLSMWTYGPTEDKSNVA	NDEMRWQ	QQYDKLPLI	nd nd nd nd nd nd	nd	0/18
RLTQQMYGFNIHANAIA	SGKERQW	QQYARLPLS	nd 1.85 1.74 2.21 2.51 2.77	2.22	0/18
KLYQVGLGSQKVDRSIA	ETSTRCT	QSYQRLPLS	nd 1.45 1.19 0.86 2.04 1.17	1.34	0/18
MMLYGDNSVGAQKDSIA	EAEQVME	QHYFRLPLV	nd 1.32 nd nd nd 0.93	1.12	0/18
HVAMECAEEKNKYRNIA	DASMRLA	QQYVRLPLG	0.07 -0.11 -0.28 -0.19 0.17 -0.13	-0.08	3/18 (2.52)
NITGMVNGKGTTTKNIA	DAEFRAG	QQYSRLPLS	0.28 0.13 0.16 0.32 0.22 0.34	0.24	1/18 (2.83)
HIDWLNRGETLKKDDIA	NANHREQ	QQYFHLPLV	0.66 0.38 0.28 0.34 0.32 0.53	0.42	0/18
QFESHLAPIGNIQHSIA	DTSCAEP	QSYFRLPLS	nd 0.95 1.31 nd 1.45 1.70	1.35	0/18
SMSNAQINPDVWKNSIA	DAEHVAY	QQYSRLPLT	0.27 0.01 0.12 -0.19 0.19 0.29	0.11	0/18
SFPESLNQQQTNVNAVA	GAQHTAR	QQYGRLPLT	nd 0.71 0.58 0.81 0.50 1.13	0.75	0/18
NFSMSAATFVNEWSSIA	DAEITYD	QQYHRLPLV	1.40 2.47 1.79 1.43 2.06 1.41	1.76	0/18

Top 6 of the variants detected in all replicates, tightest first:

{"CDR-L1": "HVAMECAEEKNKYRNIA", "CDR-L2": "DASMRLA", "CDR-L3": "QQYVRLPLG", "log10 Kd (nM) by replicate": "0.07 -0.11 -0.28 -0.19 0.17 -0.13", "log10 Kd (nM), mean": "-0.08", "signal with controls": "3/18 (2.52)"}
{"CDR-L1": "IMSEGQERDASRLNNIA", "CDR-L2": "DHYTRAT", "CDR-L3": "QQYARLPLS", "log10 Kd (nM) by replicate": "0.41 0.03 -0.03 0.04 0.07 0.05", "log10 Kd (nM), mean": "0.09", "signal with controls": "0/18"}
{"CDR-L1": "SMSNAQINPDVWKNSIA", "CDR-L2": "DAEHVAY", "CDR-L3": "QQYSRLPLT", "log10 Kd (nM) by replicate": "0.27 0.01 0.12 -0.19 0.19 0.29", "log10 Kd (nM), mean": "0.11", "signal with controls": "0/18"}
{"CDR-L1": "MVNQHDEGFKGVKDAIA", "CDR-L2": "NAELREG", "CDR-L3": "QQYGRLPLS", "log10 Kd (nM) by replicate": "0.29 0.22 0.22 0.07 0.10 -0.06", "log10 Kd (nM), mean": "0.14", "signal with controls": "1/18 (2.85)"}
{"CDR-L1": "MMKQSIEGNPLNTNNIA", "CDR-L2": "DADSVTS", "CDR-L3": "QQYARLPLF", "log10 Kd (nM) by replicate": "0.30 0.23 0.07 0.04 -0.18 0.41", "log10 Kd (nM), mean": "0.15", "signal with controls": "1/18 (2.35)"}
{"CDR-L1": "NITGMVNGKGTTTKNIA", "CDR-L2": "DAEFRAG", "CDR-L3": "QQYSRLPLS", "log10 Kd (nM) by replicate": "0.28 0.13 0.16 0.32 0.22 0.34", "log10 Kd (nM), mean": "0.24", "signal with controls": "1/18 (2.83)"}

As a blank, each scFv also met three strains without target: over all light chain designs, 4% of these pairings were detected, typically at 2.64 and seldom below 1.59. The control count says in how many pairings with the empty strains this scFv gave a signal, with their mean in brackets. Of ten entries with the parent sequence, four were seen in most replicates (averages 0.34 to 2.37), three in one and three in none, so single entries are noisy. In the paper, a design with two or fewer of six values counts as a poor binder. Values of this round are not directly comparable with the first-round values of the same sequences.

The measurements come from Li et al. 2023 (doi:10.1038/s41467-023-39022-2) through the FLAb antibody collection.